This is a selection; strong and weak results do not stand in their true shares. Active and inactive are the calls of the source.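 How the source made its calls: active means relative growth at most 50% at the other temperature and 20+ points below 30 °C, or under 10% at both; inactive means the rest, inconclusive results apart.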

Drawing on PubChem BioAssay AID720641 (ICCB-Longwood Screening Facility, Harvard Medical School, 2013), this text covers relative growth for 1 molecule.

A short description of the assay: Staphylococcus aureus RN4220 growth blockers – two temperatures, LtaS inhibitor project, primary screen (AID 720641). As to conditions: S. aureus RN4220 growth, OD600, 20 h, 42 °C; active compounds read low.
As to `CN(CCCl)CCCl`, the relative growth is inactive: 97.2%.
